## AlphaSeq binding of Ab-14 heavy chain variants to a spike HR2 peptide

Reference: Li et al. 2023, doi:10.1038/s41467-023-39022-2. File: FLAb, binding data.

Target peptide (SARS-CoV-2 spike, HR2 region): PDVDLGDISGINAS

Each scFv is VH, three GGGGS repeats, VL, as in the parent Ab-14, and differs from it in the CDRs of the heavy chain only.
VH: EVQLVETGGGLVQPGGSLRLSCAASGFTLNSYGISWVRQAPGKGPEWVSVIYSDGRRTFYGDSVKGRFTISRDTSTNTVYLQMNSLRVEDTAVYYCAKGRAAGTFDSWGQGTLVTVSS
VL: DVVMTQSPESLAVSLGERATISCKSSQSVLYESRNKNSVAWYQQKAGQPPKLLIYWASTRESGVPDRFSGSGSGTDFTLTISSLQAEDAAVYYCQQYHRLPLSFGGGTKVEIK

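The starting antibody came from a phage panning campaign against this peptide. These sequences belong to a second round, designed from the earlier measurements on random variants of the parent. Group labels follow the data file (Ctrl: baseline library sampled from a position-specific scoring matrix, with some repeated check sequences; Rand: our label for a block that the file lists under HC and that is probably the random mutants of the ten best first-round binders; GP: Gaussian process model; GPLM: also part of the Gaussian process libraries; HC: hill climbing; Gen: genetic algorithm; Gibbs: Gibbs sampling; a sequence that several methods proposed may carry one label only). AlphaSeq pools MATa yeast showing the antibodies with MATalpha yeast showing the peptide. Pairs that bind mate more often; barcode pairs of the diploids are counted by sequencing. Read counts were normalised to the haploid input and turned into Kd by a linear fit to BCL2-family pairs of known affinity, for each replicate. Mating was done six times.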

Substitutions are numbered in sequence along the VH above, starting at 1 (not Kabat). This list holds designs with at most six substitutions. The Kd shown is the geometric mean over detected replicates; a lower Kd is a better binder. Where no diploid with the target was found in any replicate, the entry reads "nd": below detection, most likely a poor binder, though not proof of it. Empty control strains, which show no peptide, gave a signal in 1% of pairings with all heavy chain designs; the median was 120 nM and 95% of these signals were weaker than 7.0 nM. No background was subtracted. Also given: how often the same scFv was detected with the empty control strains.

With S63D/G99L [Ctrl] the result was nd (0 of 6 replicates; controls 0 of 18). Variant S31E/G61T/A101E/S107L [GPLM_HC] gave 1.8 nM (6 of 6 replicates; controls 0 of 18). Variant T28W/S31E/A101M/S107T [GP_Gen] showed 6.6 nM (6 of 6 replicates; controls 0 of 18). Variant S31E/G61V/V64F/T104E/D106T [Ctrl] gave nd (0 of 6 replicates; controls 1 of 18). Variant F59H/G99C/R100K/A101E/F105N/D106T [Ctrl] showed nd (0 of 6 replicates; controls 0 of 18).

With T28D/D54Q/R56W/R100Y/F105A [Ctrl] the result was nd (0 of 6 replicates; controls 0 of 18). Variant N30E/R56M/G61A/A101T [GP_Gibbs] gave 5.6 nM (6 of 6 replicates; controls 0 of 18). For T28S/G61V/A101N/S107T [GP_Gen], the assay gave 2.2 nM (6 of 6 replicates; controls 0 of 18). Variant G61T/S63R/R100E [GPLM_Gen] gave 45 nM (5 of 6 replicates; controls 1 of 18). With A101V/D106H [Ctrl] the result was nd (0 of 6 replicates; controls 0 of 18).

With N30D/S53A/D106L [Ctrl+GPLM_HC] the result was 89 nM (7 of 12 replicates; controls 2 of 36). For T28S/S31E/R100K/A101E [GPLM_Gen], the assay gave 800 pM (6 of 6 replicates; controls 1 of 18). Variant S31E/G61S/S63A/A101C [GP_HC] gave 33 nM (3 of 6 replicates; controls 0 of 18). For V50H/G61S [Ctrl], the assay gave nd (0 of 6 replicates; controls 0 of 18). For G61A/R100Q/A101V/T104K [GP_HC], the assay gave nd (0 of 6 replicates; controls 0 of 18).

Variant T28D/G61A/R100K/S107C [GP_Gen] gave 110 nM (4 of 6 replicates; controls 2 of 18). With R100Q/T104Q [Ctrl] the result was nd (0 of 6 replicates; controls 0 of 18). Variant T28Q/S31D/G61I/S63K/R100K/A101T [GP_HC] showed 3.8 nM (4 of 6 replicates; controls 0 of 18). For T28S/S31D/S63H/A101T [GPLM_Gen], the assay gave 4.6 nM (3 of 6 replicates; controls 0 of 18). Variant T28Q/L29P/F59A [Ctrl] gave 3.0 µM (1 of 6 replicates; controls 0 of 18).

Variant F59M/D62G/G99V/R100T/A101T/T104I [Ctrl] showed nd (0 of 6 replicates; controls 0 of 18). For N30D/S31E/S53A/G61T/A101F [Rand], the assay gave 310 pM (6 of 6 replicates; controls 0 of 18). For T28E/S31K/S63Q/A101Q [GP_Gibbs], the assay gave 4.9 nM (6 of 6 replicates; controls 0 of 18). With T28H/S31E/R100Q [GP_Gen] the result was 110 nM (4 of 6 replicates; controls 0 of 18). Variant T28S/R56K/R100S/S107L [GP_Gibbs] gave 1.7 nM (6 of 6 replicates; controls 0 of 18).

Variant N30D/S63H/F105A/D106L [Rand] showed nd (0 of 6 replicates; controls 0 of 18). For G61H [Ctrl], the assay gave 1.8 nM (2 of 6 replicates; controls 0 of 18). Variant G26P/T28D/G61K/A101T [GP_Gen] gave 8.0 nM (4 of 6 replicates; controls 0 of 18). Variant S31E/R56K/G61S [GPLM_HC] showed 1.5 nM (6 of 6 replicates; controls 0 of 18). Variant T28P/S31H/S53A/R100E [GP_HC] showed 300 pM (6 of 6 replicates; controls 1 of 18).

Top 3 of the variants detected in all replicates, tightest first:

The variant T28P/S31H/S53A/R100E [GP_HC] showed 300 pM (6 of 6 replicates; controls 1 of 18).
The variant N30D/S31E/S53A/G61T/A101F [Rand] showed 310 pM (6 of 6 replicates; controls 0 of 18).
The variant T28S/S31E/R100K/A101E [GPLM_Gen] showed 800 pM (6 of 6 replicates; controls 1 of 18).

Where one sequence has several entries in the source, the replicates are pooled. Values of this round are not directly comparable with the first-round values of the same sequences. The authors' rule: three or more of the six replicates give a measured affinity, fewer mean a poor binder.